Values of other authors as cited in patent US6994987B1, “Process for producing tripeptides” (Calpis Co., Ltd., priority 1999, dated 2006).

Protein sequences, listed by entry. Tags and fused reporters are not part of them. Residues count along the entry.
UniProt P12821, 30-1306, species assumed: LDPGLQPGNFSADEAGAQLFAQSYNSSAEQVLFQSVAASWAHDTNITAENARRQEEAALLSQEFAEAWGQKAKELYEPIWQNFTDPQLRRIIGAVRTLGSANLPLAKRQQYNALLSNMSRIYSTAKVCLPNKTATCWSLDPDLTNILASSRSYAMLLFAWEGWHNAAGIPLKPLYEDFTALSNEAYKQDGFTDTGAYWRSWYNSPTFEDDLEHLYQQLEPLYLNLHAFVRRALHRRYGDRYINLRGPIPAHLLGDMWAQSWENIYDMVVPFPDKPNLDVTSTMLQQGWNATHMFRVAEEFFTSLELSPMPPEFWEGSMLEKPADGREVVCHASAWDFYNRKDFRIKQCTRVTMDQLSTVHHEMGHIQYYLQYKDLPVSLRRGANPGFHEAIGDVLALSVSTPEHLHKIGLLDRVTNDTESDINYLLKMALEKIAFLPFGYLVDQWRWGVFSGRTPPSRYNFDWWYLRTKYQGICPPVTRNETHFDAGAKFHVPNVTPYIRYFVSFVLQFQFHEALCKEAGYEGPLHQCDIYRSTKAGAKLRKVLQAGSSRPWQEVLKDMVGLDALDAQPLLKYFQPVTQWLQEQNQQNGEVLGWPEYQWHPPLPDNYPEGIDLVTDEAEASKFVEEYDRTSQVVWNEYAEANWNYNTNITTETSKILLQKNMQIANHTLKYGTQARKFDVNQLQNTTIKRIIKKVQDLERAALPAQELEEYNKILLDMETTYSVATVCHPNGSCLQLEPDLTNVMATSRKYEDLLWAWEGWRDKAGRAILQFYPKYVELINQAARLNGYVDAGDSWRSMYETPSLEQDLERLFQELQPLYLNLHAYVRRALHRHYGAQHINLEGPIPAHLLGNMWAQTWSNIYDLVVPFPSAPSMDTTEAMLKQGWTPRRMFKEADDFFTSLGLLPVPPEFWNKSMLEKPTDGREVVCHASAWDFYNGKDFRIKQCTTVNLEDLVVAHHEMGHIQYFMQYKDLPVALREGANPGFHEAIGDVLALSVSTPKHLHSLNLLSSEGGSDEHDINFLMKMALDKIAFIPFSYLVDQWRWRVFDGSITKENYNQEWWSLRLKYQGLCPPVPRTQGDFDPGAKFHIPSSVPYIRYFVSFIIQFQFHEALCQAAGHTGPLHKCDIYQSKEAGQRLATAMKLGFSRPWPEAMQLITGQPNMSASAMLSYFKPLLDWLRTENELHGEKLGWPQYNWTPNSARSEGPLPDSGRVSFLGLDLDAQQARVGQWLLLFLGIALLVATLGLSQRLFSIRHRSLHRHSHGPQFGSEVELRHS

Biological target: angiotensin converting enzyme (ACE) (Homo sapiens, UniProt P12821)
Settings: known in the prior art; cited from earlier work

Substance: Val Pro Pro [Val-Pro-Pro]
- ACE inhibitory activity: strong
